Measurements taken from patent US6620839B2, “1,3-disubstituted and 1,3,3-trisubstituted pyrrolidines as histamine-3 receptor ligands and their therapeutic applications” (Abbott Laboratories, priority 2000, dated 2003).

The chains behind the UniProt entries cited, without tags or fusion partners. Where a name states a change or a piece, a line headed by the entry shows the natural chain unless it says otherwise.
UniProt Q9QYN8: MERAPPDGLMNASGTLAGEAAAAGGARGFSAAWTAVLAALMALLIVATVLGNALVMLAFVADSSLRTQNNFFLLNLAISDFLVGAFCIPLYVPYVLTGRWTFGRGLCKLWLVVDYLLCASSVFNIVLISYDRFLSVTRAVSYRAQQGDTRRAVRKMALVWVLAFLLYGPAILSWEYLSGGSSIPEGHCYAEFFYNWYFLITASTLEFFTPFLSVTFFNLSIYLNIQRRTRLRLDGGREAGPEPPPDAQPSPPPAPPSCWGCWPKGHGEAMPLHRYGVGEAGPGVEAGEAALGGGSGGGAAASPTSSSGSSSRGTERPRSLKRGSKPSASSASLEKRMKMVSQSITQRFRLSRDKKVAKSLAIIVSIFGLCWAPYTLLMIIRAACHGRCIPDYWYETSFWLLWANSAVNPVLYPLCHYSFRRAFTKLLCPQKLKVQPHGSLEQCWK

Molecular target: T1, histamine-3 receptor (Rattus norvegicus, UniProt Q9QYN8)
T1 construct: from tissue; host or cells: male Sprague-Dawley rat brain cortex membranes
Assay: Histamine-3 receptor binding, (3H)-N-α-methylhistamine displacement in rat cortical membranes
Details: male Sprague-Dawley rat brain cortical membranes; (3H)-N-α-methylhistamine ~0.6 nM; 30 minutes at 25° C.; Cheng-Prusoff
Protocol: Briefly, male Sprague-Dawley rat brain cortices were homogenized (1 g tissue/10 mL buffer) in 50 mM Tris-HCl/5 mM EDTA containing protease inhibitor cocktail (Calbiochem) using a polytron set at 20,500 rpm. Homogenates were centrifuged for 20 minutes at 40,000×g. The supernatant was decanted, and pellets were weighed. The pellet was resuspended by polytron homogenization in 40 mL 50 mM Tris-HCl/5 mM EDTA with protease inhibitors and centrifuged for 20 minutes at 40,000×g. […] Test compounds were dissolved in DMSO to provide 20 mM solution, serially diluted and then added to the incubation mixtures prior to initiating the incubation assay by addition of the membranes. Thioperamide (3 μM) was used to determine nonspecific binding. Binding incubations were conducted for 30 minutes at 25° C. and terminated by addition of 2 mL of ice cold 50 mM Tris-HCl (pH 7.7) and filtration through 0.3% polyethylenimine-soaked Unifilter plates (Packard). These filters were washed 4 additional times with 2 mL of ice-cold 50 mM Tris-HCl and dried for 1 hour. Radioactivity was determined using liquid scintillation counting techniques. Results were analyzed by Hill transformation and Ki values were determined using the Cheng-Prusoff equation.

O=C(c1ccc(OCCCN2CC[C@@H](NS(=O)(=O)c3ccccc3Cl)C2)cc1)C1CC1 [Example 69, 2-chloro-N-((3R)-1-{3-[4-(cyclopropylcarbonyl)phenoxy]propyl}pyrrolidinyl)benzenesulfonamide] was tested, and the Ki was 3.7 nM.
